Reference: PubChem BioAssay (NCI)
Some of these compounds have results that are not shown, active ones among them.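 48-hour exposure; five concentrations; linearly interpolated endpoints. GI50: concentration for 50% inhibition of growth. TGI marks complete inhibition of growth.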

Tests used:
Assay in all cases: NCI anticancer screen, dose series, 48 h
SF-295 CNS = system: SF-295 CNS
LOX IMVI melanoma = system: LOX IMVI melanoma
786-0 renal = system: 786-0 renal
EKVX NSCLC = system: EKVX NSCLC
K-562 leukemia = system: K-562 leukemia
MCF7 breast = system: MCF7 breast
UO-31 renal = system: UO-31 renal
MDA-MB-231 breast = system: MDA-MB-231 breast
OVCAR-4 ovarian = system: OVCAR-4 ovarian
PC-3 prostate = system: PC-3 prostate
U251 CNS = system: U251 CNS
A498 renal = system: A498 renal
KM12 colon = system: KM12 colon
NCI-H23 lung = system: NCI-H23 lung
SK-MEL-28 melanoma = system: SK-MEL-28 melanoma
DU-145 prostate = system: DU-145 prostate
UACC-62 melanoma = system: UACC-62 melanoma
MDA-N = system: MDA-N
HL-60(TB) leukemia = system: HL-60(TB) leukemia
SW-620 colon = system: SW-620 colon
HCT-15 colon = system: HCT-15 colon
M14 melanoma = system: M14 melanoma
SK-MEL-5 melanoma = system: SK-MEL-5 melanoma
ACHN renal = system: ACHN renal
SK-MEL-2 melanoma = system: SK-MEL-2 melanoma
SN12C renal = system: SN12C renal
RXF 393 renal = system: RXF 393 renal
BT-549 breast = system: BT-549 breast
HT29 colon = system: HT29 colon
HS 578T breast = system: HS 578T breast
OVCAR-5 ovarian = system: OVCAR-5 ovarian
NCI/ADR-RES ovarian = system: NCI/ADR-RES ovarian
COLO 205 colon = system: COLO 205 colon
CCRF-CEM leukemia = system: CCRF-CEM leukemia
SNB-19 CNS = system: SNB-19 CNS
NCI-H460 lung = system: NCI-H460 lung
HCC-2998 colon = system: HCC-2998 colon
HCT-116 colon = system: HCT-116 colon
HOP-92 NSCLC = system: HOP-92 NSCLC
UACC-257 melanoma = system: UACC-257 melanoma
MOLT-4 leukemia = system: MOLT-4 leukemia
T-47D breast = system: T-47D breast
OVCAR-8 ovarian = system: OVCAR-8 ovarian
TK-10 renal = system: TK-10 renal
CAKI-1 renal = system: CAKI-1 renal
A549 NSCLC = system: A549 NSCLC
SK-OV-3 ovarian = system: SK-OV-3 ovarian
SNB-75 CNS = system: SNB-75 CNS
IGROV1 ovarian = system: IGROV1 ovarian
SF-539 CNS = system: SF-539 CNS
OVCAR-3 ovarian = system: OVCAR-3 ovarian
RPMI-8226 leukemia = system: RPMI-8226 leukemia
HOP-62 NSCLC = system: HOP-62 NSCLC
MDA-MB-435 = system: MDA-MB-435
SF-268 CNS = system: SF-268 CNS

Structure (SMILES): CC#CC(O)(C(=O)OC1CN2CCC1CC2)C(C)C (stereo not given)
- GI50 (SF-295 CNS): > 100 µM
- TGI (SF-295 CNS): > 100 µM
- GI50 (LOX IMVI melanoma): > 100 µM
- TGI (LOX IMVI melanoma): > 100 µM
- GI50 (786-0 renal): > 100 µM
- TGI (786-0 renal): > 100 µM
- GI50 (EKVX NSCLC): > 100 µM
- TGI (EKVX NSCLC): > 100 µM
- GI50 (K-562 leukemia): > 100 µM
- TGI (K-562 leukemia): > 100 µM
- GI50 (MCF7 breast): > 100 µM
- TGI (MCF7 breast): > 100 µM
- GI50 (UO-31 renal): > 100 µM
- TGI (UO-31 renal): > 100 µM
- GI50 (MDA-MB-231 breast): > 100 µM
- TGI (MDA-MB-231 breast): > 100 µM
- GI50 (OVCAR-4 ovarian): > 100 µM
- TGI (OVCAR-4 ovarian): > 100 µM
- GI50 (PC-3 prostate): > 100 µM
- TGI (PC-3 prostate): > 100 µM
- GI50 (U251 CNS): > 100 µM
- TGI (U251 CNS): > 100 µM
- GI50 (A498 renal): > 100 µM
- TGI (A498 renal): > 100 µM
- GI50 (KM12 colon): > 100 µM
- TGI (KM12 colon): > 100 µM
- GI50 (NCI-H23 lung): > 100 µM
- TGI (NCI-H23 lung): > 100 µM
- GI50 (SK-MEL-28 melanoma): > 100 µM
- TGI (SK-MEL-28 melanoma): > 100 µM
- GI50 (DU-145 prostate): > 100 µM
- TGI (DU-145 prostate): > 100 µM
- GI50 (UACC-62 melanoma): > 100 µM
- TGI (UACC-62 melanoma): > 100 µM
- GI50 (MDA-N): > 100 µM
- TGI (MDA-N): > 100 µM
- GI50 (HL-60(TB) leukemia): > 100 µM
- TGI (HL-60(TB) leukemia): > 100 µM
- GI50 (SW-620 colon): > 100 µM
- TGI (SW-620 colon): > 100 µM
- GI50 (HCT-15 colon): > 100 µM
- TGI (HCT-15 colon): > 100 µM
- GI50 (M14 melanoma): > 100 µM
- TGI (M14 melanoma): > 100 µM
- GI50 (SK-MEL-5 melanoma): > 100 µM
- TGI (SK-MEL-5 melanoma): > 100 µM
- GI50 (ACHN renal): > 100 µM
- TGI (ACHN renal): > 100 µM
- GI50 (SK-MEL-2 melanoma): > 100 µM
- TGI (SK-MEL-2 melanoma): > 100 µM
- GI50 (SN12C renal): > 100 µM
- TGI (SN12C renal): > 100 µM
- GI50 (RXF 393 renal): > 100 µM
- TGI (RXF 393 renal): > 100 µM
- GI50 (BT-549 breast): > 100 µM
- TGI (BT-549 breast): > 100 µM
- GI50 (HT29 colon): > 100 µM
- TGI (HT29 colon): > 100 µM
- GI50 (HS 578T breast): 54.1 µM
- TGI (HS 578T breast): > 100 µM
- GI50 (OVCAR-5 ovarian): 0.18 µM
- TGI (OVCAR-5 ovarian): > 100 µM
- GI50 (NCI/ADR-RES ovarian): > 100 µM
- TGI (NCI/ADR-RES ovarian): > 100 µM
- GI50 (COLO 205 colon): > 100 µM
- TGI (COLO 205 colon): > 100 µM
- GI50 (CCRF-CEM leukemia): > 100 µM
- TGI (CCRF-CEM leukemia): > 100 µM
- GI50 (SNB-19 CNS): > 100 µM
- TGI (SNB-19 CNS): > 100 µM
- GI50 (NCI-H460 lung): > 100 µM
- TGI (NCI-H460 lung): > 100 µM
- GI50 (HCC-2998 colon): > 100 µM
- TGI (HCC-2998 colon): > 100 µM
- GI50 (HCT-116 colon): > 100 µM
- TGI (HCT-116 colon): > 100 µM
- GI50 (HOP-92 NSCLC): > 100 µM
- TGI (HOP-92 NSCLC): > 100 µM
- GI50 (UACC-257 melanoma): > 100 µM
- TGI (UACC-257 melanoma): > 100 µM
- GI50 (MOLT-4 leukemia): > 100 µM
- TGI (MOLT-4 leukemia): > 100 µM
- GI50 (T-47D breast): > 100 µM
- TGI (T-47D breast): > 100 µM
- GI50 (OVCAR-8 ovarian): > 100 µM
- TGI (OVCAR-8 ovarian): > 100 µM
- GI50 (TK-10 renal): > 100 µM
- TGI (TK-10 renal): > 100 µM
- GI50 (CAKI-1 renal): > 100 µM
- TGI (CAKI-1 renal): > 100 µM
- GI50 (A549 NSCLC): > 100 µM
- TGI (A549 NSCLC): > 100 µM
- GI50 (SK-OV-3 ovarian): > 100 µM
- TGI (SK-OV-3 ovarian): > 100 µM
- GI50 (SNB-75 CNS): > 100 µM
- TGI (SNB-75 CNS): > 100 µM
- GI50 (IGROV1 ovarian): > 100 µM
- TGI (IGROV1 ovarian): > 100 µM
- GI50 (SF-539 CNS): > 100 µM
- TGI (SF-539 CNS): > 100 µM
- GI50 (OVCAR-3 ovarian): > 100 µM
- TGI (OVCAR-3 ovarian): > 100 µM
- GI50 (RPMI-8226 leukemia): > 100 µM
- TGI (RPMI-8226 leukemia): > 100 µM
- GI50 (HOP-62 NSCLC): > 100 µM
- TGI (HOP-62 NSCLC): > 100 µM
- GI50 (MDA-MB-435): > 100 µM
- TGI (MDA-MB-435): > 100 µM
- GI50 (SF-268 CNS): > 100 µM
- TGI (SF-268 CNS): > 100 µM
